# In PubChem BioAssay AID720553 (National Center for Advancing Translational Sciences (NCATS), 2013):
# This is a selection; strong and weak results do not stand in their true shares. Calls of active or inactive are those of the source.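 Rule for the calls: active = maximum activity change below -70%; inconclusive = maximum activity change from -70% to -50%; inactive = maximum activity change above -50%.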
# Tested on: Potassium voltage-gated channel subfamily H member 2, brain isoform KCNH2 3.1 (human)
# Assay: qHTS for Inhibitors of KCHN2 3.1: Mutant qHTS
# Settings: U2OS KCNH2 3.1, thallium flux FluxOr; stronger effect = lower value
# Procedure, shortened: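 FluxOr-based Tl+ influx in U2OS cells transduced with KCNH2 3.1 virus; rate constants normalized to DMSO controls.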
# % is set by controls: 0 for no effect and ±100 for the full control effect.
row,SMILES,activity change
1,CC(C)(C)C(=O)NC(Sc1ccncn1)C(Cl)(Cl)Cl (stereo not drawn),inactive: 1.56%
2,Cc1cc(SC(NC(=O)c2ccc(F)cc2)C(Cl)(Cl)Cl)ncn1 (stereo not drawn),inactive: 18.6%
3,CCOP(=O)(Nc1ccccc1)OCC,inactive: -2.61%
4,CN(C(=O)Cc1ccc(Cl)c(Cl)c1)[C@H]1CCCC[C@@H]1N1CCCC1,inactive: -28.1%
5,Cc1ccc(NP(=O)(Oc2ccccc2F)Oc2ccccc2F)nc1,inactive: 3.24%
6,O=P(Nc1nc2ccc(Cl)cc2s1)(c1ccccc1)c1ccccc1,inactive: -4.96%
7,CN(C)P(=O)(N(C)C)n1c(Nc2ccccc2)nnc1-c1ccccc1,inactive: -1.9%
8,CC(=O)Nc1ccc([As](=O)(O)O)cc1,inactive: 15.6%
9,O=C(O)c1ccccc1[As](=O)(O)O,inactive: 1.2%
10,CCCC1OP(N)(=O)OCC1CC (stereo not drawn),inactive: 9.45%
11,Nc1cccc2ccc([As](=O)(O)O)cc12,inactive: -4.38%
12,CCN(N=Nc1nonc1N)c1nonc1N,inactive: 19.1%
13,CN1CCCC(OC(=O)C(c2ccccc2)c2ccccc2)C1 (stereo not drawn),inactive: -43.1%
14,Clc1ccc(Cl)c(NC2=NCC(CBr)S2)c1 (stereo not drawn),inactive: 0.575%
15,COc1ccccc1OP(=O)(Nc1ccc(C)cn1)Oc1ccccc1OC,inactive: -3.39%
16,Cc1ccc(OP(=O)(Nc2nccs2)Oc2ccc(C)cc2)cc1,inactive: -9.03%
17,CN(C(=O)Cc1ccc(Cl)c(Cl)c1)[C@H]1CCCC[C@H]1N1CCCC1,inactive: -4.81%
18,Cc1ccc(N/C(=N/P(=O)(N2CCOCC2)N2CCOCC2)N2CCOCC2)cc1,inactive: -3.72%
19,NC(=O)c1cc([N+](=O)[O-])cc([N+](=O)[O-])c1N,inactive: 13.4%
20,Oc1ccccc1CNc1ccccn1,inactive: 4.98%
21,O=C(NC(Sc1ccncn1)C(Cl)(Cl)Cl)c1ccccc1 (stereo not drawn),inactive: 17.5%

row,SMILES,activity change
1,Nc1cc(N)c2nonc2c1[N+](=O)[O-],inactive: -0.686%
2,CC(C)CC(=O)NC(Sc1ccc(Cl)cc1)C(Cl)(Cl)Cl (stereo not drawn),inactive: 0.952%
3,CC(C)(C)C(=O)NC(Sc1ccccc1)C(Cl)(Cl)Cl (stereo not drawn),inactive: -13.8%
4,CCc1cc(O)c([N+](=O)[O-])c(C)c1[N+](=O)[O-],inactive: -5.44%
5,O=P1(Nc2nc3ccc(Cl)cc3s2)COc2ccccc2O1 (stereo not drawn),inactive: -33.7%
6,CCOc1ccc(C2=NCC(CBr)S2)cc1 (stereo not drawn),inactive: -1.45%
7,CC(=O)Nc1ccc([As](=O)(O)O)c(O)c1,inactive: 5.15%
8,CC(=O)Nc1ccc(Oc2c([N+](=O)[O-])cc([N+](=O)[O-])cc2[N+](=O)[O-])cc1,inactive: 3.26%
9,Cc1ccccc1CN(C)C(=O)COC(=O)C(O)(c1ccccc1)c1ccccc1,inactive: -4.81%
10,C[C@H]1OP(=O)(Oc2ccccc2)C[C@@H]2O[C@@H]21 (stereo partly drawn),inactive: 2.01%
11,C[C@@H]1C=CCP(=O)(Oc2ccccc2)O1 (stereo partly drawn),inactive: 8.08%
12,CC(=O)c1ccc(N2CC2c2ccncc2)cc1 (stereo not drawn),inactive: -0.283%
13,COC(=O)C1(C)COP(=O)(NCc2ccccc2)OC1 (stereo not drawn),inactive: -9.69%
14,O=P1(N(CCCl)CCCl)OCCC2CCCCN21 (stereo not drawn),inactive: -5.01%
15,c1ccc(-c2nn[nH]n2)c(-c2nn[nH]n2)c1,inactive: -36.2%
16,Cc1ccc(NP(=O)(Oc2cccc(C)c2)Oc2cccc(C)c2)nc1,inactive: -17.1%
17,O=C(NC1CCS(=O)(=O)C1)NP(=S)(Oc1ccccc1)Oc1ccccc1 (stereo not drawn),inactive: 7.71%
18,CCNC(=S)/N=C(\N)N[N+](=O)[O-],inactive: 6.23%
19,CC(NC(=O)COC(=O)C(O)(c1ccccc1)c1ccccc1)c1ccccc1 (stereo not drawn),inactive: -12.2%
20,Cc1ccccc1OP(=O)(Nc1ccccn1)Oc1ccccc1C,inactive: -8.59%
21,O=c1c2cc([N+](=O)[O-])ccc2[nH]c2c([N+](=O)[O-])cc([N+](=O)[O-])cc12,inactive: -4.69%

row,SMILES,activity change
1,CN(C)C(=O)Oc1noc2ccccc12,inactive: 0.989%
2,O=C(OC1CN2CCC1CC2)c1ccccc1 (stereo not drawn),inactive: -5.09%
3,CCC(=O)N1C2C3N(C(=O)CC)C1C1N(C(=O)CC)C(C(N1C(=O)CC)N3C(=O)CC)N2C(=O)CC,inactive: -20.8%
4,COC(=O)c1cc2c(s1)N=C(c1ccccc1)N(C)P2(=O)N1CCOCC1 (stereo not drawn),inactive: 0.841%
5,Cc1ccc(OP(=O)(Nc2ccccn2)Oc2ccc(C)cc2)cc1,inactive: 6.82%
6,CC(=O)NC(SC(=S)N(CC(C)C)CC(C)C)C(Cl)(Cl)Cl (stereo not drawn),inactive: 8.56%
7,O=P(Nc1nc2ccccc2s1)(c1ccccc1)c1ccccc1,inactive: -5.1%
8,C[C@H]1OP(=O)(Oc2ccccc2)[C@H](O)[C@H](O)[C@H]1N=[N+]=[N-] (stereo partly drawn),inactive: 2.86%
9,CN(C)C1(CNC(=O)c2ccc(Cl)c(S(N)(=O)=O)c2)CCCCC1,inactive: -1.29%
10,O=P(Nc1ccccn1)(c1ccc(Br)cc1)c1ccc(Br)cc1,inactive: -5.4%
11,COc1ccc(N)c([N+](=O)[O-])c1[N+](=O)[O-],inactive: 3.8%
12,O=C(OC1CN2CCC1CC2)c1cccc(Cl)c1 (stereo not drawn),inactive: -3.91%
13,C(Cc1nn[nH]n1)Cc1nn[nH]n1,inactive: 2.86%
14,Nc1ccc([As](=O)(O)c2ccc([N+](=O)[O-])cc2)cc1,inactive: 8.48%
15,O=[As](O)(c1ccccc1)c1ccc(O)cc1,inactive: -6.4%
16,O=[N+]([O-])c1ncn(CCn2cnc([N+](=O)[O-])n2)n1,inactive: -10.6%
17,CC(=O)NC(SC(=S)N(C)C)C(Cl)(Cl)Cl (stereo not drawn),inactive: -6.4%
18,O=[N+]([O-])c1ccc(O)c(/C=N/Nc2ccc([N+](=O)[O-])cc2[N+](=O)[O-])c1,inactive: 8.62%
19,c1nnnn1CCn1cnnn1,inactive: 21.7%
20,O=P(Nc1nccs1)(c1ccccc1)c1ccccc1,inactive: -19.4%
21,CC(C)C(=O)NC(Sc1ccccc1)C(Cl)(Cl)Cl (stereo not drawn),inactive: 1.43%
